The assay concerns the target PDE10A (Homo sapiens, UniProt Q9Y233). The assay is described as follows: luminescence PDE inhibition assay (PDElight HTS cAMP phosphodiesterase assay kit). The class given is biochemical. Here is the method:
Test and reference compounds were dissolved in dimethyl sulfoxide (DMSO) at a concentration of 1 mM and further diluted in assay buffer in order to obtain the final concentration of compounds: 10 µM and 3 µM, respectively. All reactions were carried out at 37 °C in white, half-area 96-well plates (Perkin Elmer, Waltham, MA, USA). The inhibition of PDE 10A enzyme was measured using the PDElight HTS cAMP phosphodiesterase assay kit (Lonza) according to the manufacturer’s recommendations. 2.5 U of PDE 10A enzyme was preincubated either with DMSO (vehicle control) or compound for 20 min before incubation with the substrate, cAMP (final concentration 1.25 µM), for 1 h. Then, PDELight AMP Detection Reagent was added. After 10 min incubation, the luminescence was measured in a multifunction plate reader (POLARstar Omega, BMG Labtech, Ortenberg, Germany).

By UniProt entry, the sequences of proteins in these tests, tags left out.
UniProt Q9Y233, whole entry, species assumed: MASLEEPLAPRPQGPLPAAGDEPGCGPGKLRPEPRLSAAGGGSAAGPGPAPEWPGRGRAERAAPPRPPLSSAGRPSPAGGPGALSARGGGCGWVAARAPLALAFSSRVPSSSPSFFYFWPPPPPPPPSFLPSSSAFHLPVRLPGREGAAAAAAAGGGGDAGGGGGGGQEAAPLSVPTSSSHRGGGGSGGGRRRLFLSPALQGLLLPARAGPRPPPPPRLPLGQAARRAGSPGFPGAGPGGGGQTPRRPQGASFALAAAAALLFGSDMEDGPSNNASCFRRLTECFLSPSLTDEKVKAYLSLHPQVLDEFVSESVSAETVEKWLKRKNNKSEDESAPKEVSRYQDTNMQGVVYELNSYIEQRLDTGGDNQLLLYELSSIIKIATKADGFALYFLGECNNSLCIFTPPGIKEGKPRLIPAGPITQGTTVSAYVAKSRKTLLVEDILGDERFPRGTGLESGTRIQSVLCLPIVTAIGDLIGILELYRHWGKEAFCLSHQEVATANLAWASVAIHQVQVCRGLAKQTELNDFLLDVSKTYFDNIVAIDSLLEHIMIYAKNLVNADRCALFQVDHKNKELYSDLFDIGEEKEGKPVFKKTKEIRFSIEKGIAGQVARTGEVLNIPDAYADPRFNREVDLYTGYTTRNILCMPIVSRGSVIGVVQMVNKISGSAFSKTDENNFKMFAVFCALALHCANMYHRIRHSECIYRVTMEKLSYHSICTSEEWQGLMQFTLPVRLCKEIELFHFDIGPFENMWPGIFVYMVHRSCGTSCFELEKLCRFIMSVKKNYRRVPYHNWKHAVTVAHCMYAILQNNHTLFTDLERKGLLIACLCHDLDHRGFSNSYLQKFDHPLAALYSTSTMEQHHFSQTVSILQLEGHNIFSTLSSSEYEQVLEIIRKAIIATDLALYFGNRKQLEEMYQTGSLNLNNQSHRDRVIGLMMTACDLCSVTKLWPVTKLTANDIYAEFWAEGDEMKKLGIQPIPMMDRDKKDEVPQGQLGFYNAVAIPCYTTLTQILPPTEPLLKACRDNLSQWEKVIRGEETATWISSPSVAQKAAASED

One may read the IC50 as the concentration that inhibits the measured activity by half.

Structures are written as SMILES.

`COc1ccc(Cc2nccc3cc(OC)c(OC)cc23)cc1OC` [Papaverine, papaverine] came in with an IC50 of 5.755 ± 0.055 µM.

The values above are taken from PMC7504677, “Impact of N-Alkylamino Substituents on Serotonin Receptor (5-HTR) Affinity and Phosphodiesterase 10A (PDE10A) Inhibition of Isoindole-1,3-dione Derivatives” (Molecules, 2020).
